Source: publication PMC9730857 (ACS chemical neuroscience, 2022)
Values joined by “and” are separate entries in the source; they are usually repeats but may differ in a detail not shown here. Equal entries are not always repeated.

Sequences of proteins named here, by UniProt entry; tags and fusion partners are left off.
UniProt Q923Y9, whole entry: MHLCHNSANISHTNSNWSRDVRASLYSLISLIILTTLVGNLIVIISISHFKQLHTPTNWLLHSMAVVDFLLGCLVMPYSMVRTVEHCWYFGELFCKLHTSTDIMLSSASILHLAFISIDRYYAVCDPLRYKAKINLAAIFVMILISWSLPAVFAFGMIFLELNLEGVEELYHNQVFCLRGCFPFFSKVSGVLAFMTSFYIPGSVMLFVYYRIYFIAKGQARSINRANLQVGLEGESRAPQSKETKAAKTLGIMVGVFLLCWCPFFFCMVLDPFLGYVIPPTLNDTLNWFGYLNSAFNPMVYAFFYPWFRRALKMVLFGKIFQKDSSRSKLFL
UniProt Q923Y8, whole entry: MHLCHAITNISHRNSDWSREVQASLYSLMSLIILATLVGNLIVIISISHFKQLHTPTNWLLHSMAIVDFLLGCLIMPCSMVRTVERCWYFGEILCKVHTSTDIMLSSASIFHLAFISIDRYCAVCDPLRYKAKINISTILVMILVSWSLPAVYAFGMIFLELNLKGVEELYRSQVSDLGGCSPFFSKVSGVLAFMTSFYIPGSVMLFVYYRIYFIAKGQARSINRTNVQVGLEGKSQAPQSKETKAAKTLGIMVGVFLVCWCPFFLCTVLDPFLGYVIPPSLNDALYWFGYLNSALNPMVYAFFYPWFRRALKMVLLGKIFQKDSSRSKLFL

Experiments:
rTAAR1 = rTAAR1 (Rattus norvegicus, UniProt Q923Y9); assay: [3H]RO5166017 radioligand binding, rTAAR1 membranes; settings: competition binding
mTAAR1 [1] = molecular target: T1, mTAAR1 (Mus musculus, UniProt Q923Y8); assay: [3H]RO5166017 radioligand binding, mTAAR1 membranes; settings: Ki values
mTAAR1 [2] = molecular target: T1, mTAAR1; settings: literature value; cited from earlier work

SMILES | Effect on [3H]RO5166017 binding at rTAAR1 (rTAAR1) | fold more potent at hTAAR1 compared to mTAAR1 (binding) (mTAAR1 [1]) [fold] | Reduction of mTAAR1-stimulated cAMP production (inverse agonist activity) (mTAAR1 [2])
N#Cc1c(C(F)(F)F)cc(-c2ccc(Cl)cc2)nc1SCC(=O)Nc1ncccn1 [Compound 34, 2-[[6-(4-chlorophenyl)-3-cyano-4-(trifluoromethyl)-2-pyridinyl]thio]-N-2-pyrimidinylacetamide] | potentiates [^3H]RO5166017 binding at rTAAR1 | 463 | 
CCOc1cccc(NC(=O)c2ccc(N3CCCC3)c(C(F)(F)F)c2)c1 [EPPTB, N-(3-ethoxyphenyl)-4-(pyrrolidin-1-yl)-3-trifluoromethylbenzamide] |  |  | −12.3% and −12.3 ± 4.7%
